# From PubChem
# ERp5 inh – ERp5 (human) disulfide isomerase inhibition | ERp5 insulin aggregation, absorbance 650 nm, 90 min | 0.05% of 350,000 active | inhibition, % at 9.99 µM | AID 651711;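 active = mean replicate inhibition above about 25%, with every replicate also reaching it, limit read from the data, passing the limit was not always enough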
# SMARCA2 activ – SMARCA2 function activation, primary screen; MG213 cells, MMTV-luciferase reporter, dexamethasone, overnight; activation, % at 9.1 µM; 1% of 370,000 active; AID 652017; in the data active = activation above about 7.8%;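 note: 0% = vehicle wells and 100% = reference activator wells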
# Yeast UUG start – alters start codon recognition fidelity in yeast. S. cerevisiae UUG-firefly luciferase reporter, luminescence/redox ratio. activity score, % at 18.7 µM. 0.13% of 350,000 active. AID 602363;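 active = replicate mean at a twofold rise or more, about +100% in these data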;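 also: firefly luciferase made from a UUG start codon reports start codon fidelity; reporter light over untreated wells divided by growth signal over untreated wells; some hits fall short of that in this replicate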
# GSIS activator – GLuc luminescence reporter in INS-1E cells, primary screen for activators of glucose-dependent secretion of insulin. INS-1E GLuc reporter insulin secretion, 2-3 h. activation, % at 16.6 µM. 0.61% of 370,000 active;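 active = lowest replicate activation of at least 40%, so every replicate reaches that level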;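 note: 0% = median of neutral control wells and 100% = median of IBMX positive control wells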
# PDI turbidity – inhibitors of human protein disulfide isomerase; inhibition, % at 10 µM; 0.052% of 350,000 active; AID 588391; PDI insulin aggregation turbidity, A650, 90 min; P07237;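 active = mean inhibition across replicates of 30% or more, whatever share of single replicates reach that level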
# Rev-erbA mod – modulators of human Rev-erb alpha DNA binding. Rev-erbα–FITC-DNA binding, fluorescence polarization, 90 min. activity, % at 10 µM. 0.79% of 370,000 active. AID 1259318;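 active = activity above about 14%, limit read from the data; passing the limit was not always enough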;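 note: 0% = DMSO wells with 35 nM protein and 100% = DMSO wells with 750 nM protein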
# Rev-erbA confirm – confirmation of modulators of human Rev-erb alpha DNA binding | 61% of 3,000 active | AID 1259319 | activation, % at 25 µM | Rev-erb alpha FITC-DNA binding, fluorescence polarization, 90 min | shares compounds with Rev-erbA mod;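 active = activation at or above a set limit, or at least 3 SD above the negative control mean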;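 note: 0% = 35 nM protein with DMSO and 100% = 750 nM protein high control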
# RORg DNA counter – counter-screen for Rev-erb alpha modulators: RORgamma DNA binding | shares compounds with Rev-erbA mod | IC50, µM | purified RORgamma protein-FITC-DNA binding, fluorescence polarization | 8% of 910 active;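 active = Compounds whose fitted half-maximal concentration for disrupting protein-DNA binding is below 10 micromolar; the record names Rev-erb in its text, so the target is in doubt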
# * = called active by the depositor; nt = no result. An excerpt weighted towards active compounds, which were near 2.1% of everything screened.
SMILES,ERp5 inh,SMARCA2 activ,Yeast UUG start,GSIS activator,PDI turbidity,Rev-erbA mod,Rev-erbA confirm,others
COc1cc(/C=C/C(=O)OCC(=O)c2ccc(S(=O)(=O)N3CCCCC3)cc2)cc(OC)c1OC,13.1,-0.2,-10.0,18.8,-5.0,18.0*,5.4,
COc1ccc(-c2nn(C)c(=O)c3ccccc23)cc1NC(=O)COc1ccc(C)cc1,-3.7,-3.2,-12.2,-25.3,9.8,34.4*,8.2,
CCC(=O)Nc1cc(-c2nn(C)c(=O)c3ccccc23)ccc1OC,nt,-2.2,-1.6,nt,3.2,1.6,nt,
CCOC(=O)c1nn(-c2ccccc2)c(=O)cc1OCC(=O)Nc1cc(C)ccc1OC,16.7,-5.0,-9.5,29.7,-6.8,47.7*,13.1,
CCOC(=O)c1nn(-c2ccc(F)cc2)c(=O)cc1OCC(=O)Nc1cccc(C)c1,-0.2,2.3,-15.0,10.7,-3.2,100.7*,93.4*,RORg DNA counter=>40
C[C@@H]1CN([C@@H](C)CO)C(=O)c2cc(NC(=O)Nc3ccccc3)ccc2O[C@@H]1CN(C)Cc1ccc(Oc2ccccc2)cc1,1.5,nt,8.6,-17.3,nt,nt,nt,
COc1ccc2cc(C(=O)NCc3ccccc3)c(=O)oc2c1,1.8,-1.9,-17.2,2.4,-4.5,40.2*,11.2,
CCN(CC)c1ccc2cc(C(=O)NCc3ccc(F)cc3)c(=N)oc2c1,1.8,2.6,-5.8,-12.5,25.2,39.8*,32.5*,RORg DNA counter=>40
COc1ccc2oc(=O)c(C(=O)NCc3ccc(F)cc3)cc2c1,1.8,-3.1,-9.2,-9.6,15.1,29.8*,12.7,
COc1ccc(CNC(=O)c2cc3ccccc3oc2=O)cc1,-3.8,0.0,-4.6,0.4,4.3,-2.8,nt,
COc1ccc(S(=O)(=O)N(C)C[C@@H]2Oc3c(NS(=O)(=O)c4ccc(F)cc4)cccc3C(=O)N([C@H](C)CO)C[C@@H]2C)cc1,nt,nt,1.5,-18.6,nt,nt,nt,
CC(C)COc1ccc(C(=O)Nc2scc(-c3ccc(Cl)cc3Cl)c2C(N)=O)cc1,nt,-1.7,-10.3,nt,-6.0,31.5*,29.4*,
C/C=C/c1ccc([C@H]2[C@@H](CO)N(C(=O)COC)[C@@H]2CNC(=O)CC)cc1,0.1,nt,0.7,-2.3,nt,nt,nt,
COC(=O)C1=CN(c2ccc(F)cc2)C(N)=C(C#N)C1c1cccc(F)c1 (stereo not drawn),0.0,-0.9,nt,-67.2,nt,1.1,nt,
COC(=O)C1=CN(c2ccc(N3CCOCC3)cc2)C(N)=C(C#N)C1c1cccc(F)c1 (stereo not drawn),-5.0,-2.3,nt,-7.4,nt,24.0*,8.4,
Cc1ccc(S(=O)(=O)N[C@H]2CC[C@@H](CCNC(=O)C3CCCCC3)O[C@H]2CO)cc1,-0.4,nt,-2.8,-5.8,nt,nt,nt,
C[C@@H]1C(=O)N[C@H](c2ccccc2)CC=CC[C@H](C)Oc2ccccc2C(=O)N1C (mixture of isomers),nt,nt,nt,0.3,nt,nt,nt,
CCn1ncc(Br)c1C(=O)Nc1ccccc1OC,-2.8,1.3,nt,4.1,-0.5,-2.1,nt,
CCn1ncc(Br)c1C(=O)Nc1cc(C(=O)OC)ccc1C(=O)OC,nt,2.8,nt,nt,-2.9,44.8*,24.2*,
O=C(COC(=O)c1ccc2ccccc2c1)Nc1ncc(C(F)(F)F)cc1Cl,nt,-0.9,-3.7,nt,-9.0,33.8*,13.2,
COCCOC(=O)N1C(=O)[C@@]2(c3cc(C#Cc4ccc(OC)cc4)ccc31)[C@H](C(=O)N1CCN(c3ncccn3)CC1)[C@H]1C(=O)O[C@H](c3ccccc3)[C@H](c3ccccc3)N1[C@@H]2c1ccc(OCCO)cc1,3.3,nt,-6.4,nt,nt,nt,nt,
CC(C)NC(=O)NCC[C@H]1CC[C@@H](NC(=O)c2ccc(F)cc2)[C@@H](CO)O1,-7.4,nt,-3.2,25.1,nt,nt,nt,
Cc1ccc(-c2cc(C(=O)NN=Cc3c(O)ccc4ccccc34)[nH]n2)cc1C,nt,-5.4,nt,nt,nt,22.2*,15.8*,
COc1ccccc1S(=O)(=O)N[C@@H]1CC[C@H](CCn2cc(C3CC3)nn2)O[C@H]1CO,0.6,nt,24.4,0.0,nt,nt,nt,
O=C(NCCOc1ccccc1)C1Nc2ccc(C(F)(F)F)cc2C2c3ccccc3CC12 (stereo not drawn),nt,-1.4,-15.0,-9.4,-5.5,-2.1,nt,

# Already shown: entries from further up.
SMILES,ERp5 inh,SMARCA2 activ,Yeast UUG start,GSIS activator,PDI turbidity,Rev-erbA mod,Rev-erbA confirm,others
CC(C)NC(=O)NCC[C@H]1CC[C@@H](NC(=O)c2ccc(F)cc2)[C@@H](CO)O1,-7.4,nt,-3.2,25.1,nt,nt,nt,
Cc1ccc(-c2cc(C(=O)NN=Cc3c(O)ccc4ccccc34)[nH]n2)cc1C,nt,-5.4,nt,nt,nt,22.2*,15.8*,
COc1ccccc1S(=O)(=O)N[C@@H]1CC[C@H](CCn2cc(C3CC3)nn2)O[C@H]1CO,0.6,nt,24.4,0.0,nt,nt,nt,
O=C(NCCOc1ccccc1)C1Nc2ccc(C(F)(F)F)cc2C2c3ccccc3CC12 (stereo not drawn),nt,-1.4,-15.0,-9.4,-5.5,-2.1,nt,

# Next section:
SMILES,ERp5 inh,SMARCA2 activ,Yeast UUG start,GSIS activator,PDI turbidity,Rev-erbA mod,Rev-erbA confirm,others
CCOC(=O)C1Nc2ccc(C(F)(F)F)cc2C2c3ccccc3CC12 (stereo not drawn),9.0,0.4,-8.4,10.3,0.1,36.4*,13.9,
CCCC#Cc1ccc2c(c1)O[C@@H](CN(C)C(=O)c1ccncc1)[C@@H](C)CN([C@H](C)CO)S2(=O)=O,-1.3,nt,-7.0,5.7,nt,nt,nt,
COc1ccc(NC(=O)CSc2nnc(-c3ccccn3)n2N)c(OC)c1,nt,2.2,-17.4,nt,-5.0,-2.7,nt,
COc1ccc(NC(=O)CSc2nnc(-c3cccs3)n2N)c(OC)c1,-1.5,3.7,4.0,-11.2,3.3,12.8*,1.2,
CC1(C)Cc2c(C#N)c(N)n(-c3ccccc3)c(=S)c2CO1,0.3,-4.4,-1.1,-3.4,-3.5,-4.9,nt,
CC1(C)C=C2C(=NN(c3ccccc3)C(N)=C2C#N)CO1,2.2,-1.1,-19.3,3.9,-4.5,18.7*,10.5,
O=C(Nc1cccc(Cl)c1)N1C[C@H]2[C@@H](c3ccccc31)[C@H](CO)N2Cc1ccncc1,1.7,nt,-11.6,-4.2,nt,nt,nt,
CC(C)NC(=O)N1[C@H](CO)[C@@H]2c3ccccc3N(C(=O)Nc3ccc(Cl)cc3)C[C@@H]21,0.6,nt,-11.0,-9.9,nt,nt,nt,
CCOC(=O)Cc1csc(NC(=O)COc2ccc(N(C)S(=O)(=O)c3ccc(C)cc3)cc2)n1,nt,-1.6,-10.2,nt,7.0,8.2,nt,
CCOc1ccc(S(=O)(=O)N(C)c2ccc(OCC(=O)Nc3nc(-c4cc(OC)ccc4OC)cs3)cc2)cc1,3.5,1.0,-2.1,nt,-28.9,24.9*,30.1*,
CN(C)c1ccc(/C=C(/C#N)C(=O)NCc2ccccc2)o1,nt,-0.1,nt,-7.8,6.7,32.8*,10.6,
